MC4R antagonist – human MC4R antagonism in cAMP assay; P32245; MC4R-expressing cells, MTII-stimulated cAMP, LANCE TR-FRET; inhibition, % at 6.5 µM; 0.48% of 360,000 active; AID 540295;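 active means inhibition above its plate's cutoff, the mean of tested wells on that plate plus 3 SD, cut at about 29% in these data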;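 further: 0% = Melanotan II alone and 100% = Melanotan II plus saturating MCL0020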
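Material: human MC4R-expressing U2OS cells. Probe or stimulus: Melanotan II challenge. Dosing: 6.5 µM single dose. Times: 30-min compound, 1-h challenge, 1-h detection, room temperature. Technique: TR-FRET with Eu-cAMP and labeled anti-cAMP, 671 nm. Replication: singlicate.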
HDAC3 inh – blocks human histone deacetylase 3; inhibition, % at 8.3 µM; O15379; recombinant HDAC3, fluorogenic peptide/trypsin coupled, fluorescence; 0.15% of 320,000 active; AID 2718; in the data active means inhibition above about 26%, passing the limit was not always enough
NALP1 inh – blocks the NALP1 inflammasome reconstituted in yeast; S. cerevisiae NALP1/ASC/caspase-1 growth, X-gal OD620, 72 h; inhibition, % at 10 µM; 0.61% of 280,000 active; in the data active means inhibition mostly above about 24%, no sharp cut-off; inactive means mostly below about 32%
ALR inh – inhibitors of human ALR sulfhydryl oxidase, primary screen, biochemical, H2O2 detection, HRP-luminol luminescence, single point. purified ALR, DTT oxidation. inhibition, % (concentration not given with the values). 290,000 compounds, 3.8% hits. AID 485317, 2010;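 active = mean and each replicate at 75% or more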;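 note: stock transfer was 7.5 nL into about 7.5 µL; 0% = neutral wells and 100% = wells with inactivated enzyme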
MC4R ag barr – activates human MC4R beta-arrestin recruitment; P32245; 0.98% of 360,000 active; U2OS MC4R beta-arrestin complementation, luminescence; percent of melanotan II response, DMSO zero; activation, % at 8.9 µM;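 active means activation above a per-plate cutoff, the mean activation of sample wells on that plate plus 3 SD, cut at about 8% in these data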
Yeast UUG start – modulators of yeast start codon fidelity, primary screen, whole organism, S. cerevisiae, single point, plate reader; S. cerevisiae UUG-firefly luciferase reporter, luminescence/redox ratio; activity score, % at 18.7 µM; 0.13% of 350,000 active; AID 602363, 2012;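 active = replicate mean at a twofold rise or more, about +100% in these data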;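 also: firefly luciferase made from a UUG start codon reports start codon fidelity; reporter light over untreated wells divided by growth signal over untreated wells; some hits fall short of that in this replicate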
* hit, by the source's call; / = not tested or not shown. Only some compounds are listed: those with a hit (about 4.2% of all), similar ones and a draw of the others.

(1) Cc1ccc(-c2csc3nc(SCC(=O)N(C)C)n(Cc4ccccc4)c(=O)c23)cc1
(2) NC(=O)CSc1nc2scc(-c3ccc(Cl)cc3)c2c(=O)n1Cc1ccccc1
(3) CCc1ccc(OCC(O)CN2CCCC2)cc1 (stereo unspecified)
(4) COc1ccc(N2CCN(CC(O)COc3cc(C)ccc3C)CC2)cc1 (stereo unspecified)
(5) CCc1ccc(OCC(O)CN2CCN(c3ccc(OC)cc3)CC2)cc1 (stereo unspecified)
(6) CC(=O)Nc1ccc(OCC(O)CN2CCN(c3ccc(C)c(Cl)c3)CC2)cc1 (stereo unspecified)
screen / no.	1	2	3	4	5	6
MC4R antagonist	0	13	9	9	5	3
HDAC3 inh	12	-3	-2	6	2	0
NALP1 inh	30	45	-29	28	24	-26
ALR inh	-6	-3	/	9	94*	98*
MC4R ag barr	3	8.7*	-2	2	-1	-1
Yeast UUG start	-11	4	-13	11	6	/

(7) COc1cc(C(C)=O)ccc1OCC(O)CN1CCN(c2ccc(C)c(C)c2)CC1 (stereo unspecified)
(8) COc1ccc(N2CCN(CC(O)COc3ccc(C)cc3C)CC2)cc1 (stereo unspecified)
(9) Cc1ccccc1S(=O)(=O)NCC[C@H]1CC[C@@H](NC(=O)C2CC2)[C@H](CO)O1
(10) C[C@@H]1CN([C@H](C)CO)C(=O)c2cc(NC(=O)CCC(F)(F)F)ccc2O[C@H]1CN(C)C(=O)Nc1ccccc1
(11) COc1cccc(C(=O)Oc2ccc(N3C(=O)CCC3=O)c(C)c2)c1
(12) C[C@H]1CCCCO[C@H](CN(C)C(=O)C2CCCCC2)[C@@H](C)CN([C@@H](C)CO)C(=O)c2cc(NC(=O)Cc3ccccc3)ccc2O1
screen / no.	7	8	9	10	11	12
MC4R antagonist	1	1	/	/	-5	/
HDAC3 inh	4	0	/	/	-1	/
NALP1 inh	6	31	/	/	35*	/
ALR inh	98*	79*	/	/	-8	/
MC4R ag barr	-2	1	/	/	0	/
Yeast UUG start	-14	/	-4	-5	/	7

(13) C[C@H](O)C#Cc1cnc2c(c1)C(=O)N([C@H](C)CO)C[C@H](C)[C@H](CN(C)Cc1ccc(-c3ccccc3)cc1)O2
(14) O=C(CCC(=O)OCc1ccc(C(=O)Oc2ccc(Cl)cc2)cc1)Nc1ccccc1
(15) CC1=C(C(=O)OC2CCCCC2)C(c2ccccc2)NC(=O)N1 (stereo unspecified)
(16) CC1=C(C(=O)OC2CCCCC2)C(c2ccccc2Br)NC(=O)N1 (stereo unspecified)
(17) CC1=C(C(=O)OCC2CCCO2)C(c2ccc(F)cc2)NC(=O)N1 (stereo unspecified)
(18) CC1=C(C(=O)OCC2CCCO2)C(c2cccc(O)c2)NC(=O)N1 (stereo unspecified)
screen / no.	13	14	15	16	17	18
MC4R antagonist	/	1	14	8	-2	-1
HDAC3 inh	/	-3	-7	10	2	-8
NALP1 inh	/	20	6	10	41*	-4
ALR inh	/	-4	97*	-1	-25	2
MC4R ag barr	/	9.6*	0	8.2*	-1	-1
Yeast UUG start	2	-13	-8	-16	-2	-13

(19) CCOc1ccccc1C1NC(=O)NC(C)=C1C(=O)OC1CCCCC1 (stereo unspecified)
(20) CC1=C(C(=O)OC2CCCCCCC2)C(c2ccc(O)cc2)NC(=O)N1 (stereo unspecified)
(21) C[C@H](CO)N1C[C@H](C)[C@H](CN(C)Cc2ccc(-c3ccccc3)cc2)Oc2ccc(NC(=O)Cn3cnnn3)cc2CC1=O
(22) COc1cnn(C(C)(C)C)c(=O)c1Cl
(23) Cc1cccc(Oc2cnn(C(C)(C)C)c(=O)c2Cl)c1
(24) FC(F)(F)c1cc(CCN2CCNC[C@H]2Cc2cccc3ccccc23)cc(C(F)(F)F)c1
screen / no.	19	20	21	22	23	24
MC4R antagonist	7	11	/	2	6	9
HDAC3 inh	1	6	/	0	9	32*
NALP1 inh	37	3	/	20	-8	/
ALR inh	3	5	/	-19	6	-29
MC4R ag barr	2	2	/	2	8.8*	2
Yeast UUG start	-7	16	12	/	-9	-3

(25) C[C@@H]1CCCCO[C@H](CN(C)Cc2ccccc2)[C@H](C)CN([C@@H](C)CO)C(=O)c2cc(NC(=O)C3CCCCC3)ccc2O1
(26) Cc1ccccc1-n1c(=S)[nH]c2nc3c(cc2c1=O)CCCC3
(27) COc1cc(NC(=O)CN2c3ccccc3CC2C)cc(OC)c1OC (stereo unspecified)
(28) COc1ccc(Cl)cc1NC(=O)CN1c2ccccc2CC1C (stereo unspecified)
(29) Cc1ccc(-c2cnc3c(c2)C(=O)N([C@H](C)CO)C[C@H](C)[C@H](CN(C)C(=O)Cc2ccccc2)O3)cc1
(30) O=C(NNc1ccccc1Br)C(O)(c1cccc(C(F)(F)F)c1)c1cccc(C(F)(F)F)c1
screen / no.	25	26	27	28	29	30
MC4R antagonist	/	3	0	9	/	14
HDAC3 inh	/	15	-4	-1	/	0
NALP1 inh	/	11	28	10	/	29
ALR inh	/	98*	97*	-4	/	/
MC4R ag barr	/	-2	-1	-2	/	0
Yeast UUG start	19	/	-8	-5	10	/

(31) Cc1ccc(NNC(=O)C(O)(c2cccc(C(F)(F)F)c2)c2cccc(C(F)(F)F)c2)cc1
(32) CN(C)CC(=O)Nc1ccc2c(c1)[C@@H]1C[C@H](CC(=O)N(C)C)O[C@@H](CO)[C@@H]1O2
(33) Cc1cc(C)n(-c2cc(O)c(-n3nc(C)cc3C)cc2O)n1
(34) COCC#Cc1cnc2c(c1)C(=O)N([C@@H](C)CO)C[C@@H](C)[C@@H](CN(C)C(=O)Nc1cccc(F)c1)O2
(35) Cc1ccc2nc(Cl)c(/C=N/NC(=O)[C@H]3C[C@@H]3c3ccccc3)cc2c1
(36) Cc1ccc2nc(Cl)c(/C=N/NC(=O)c3ccccc3O)cc2c1
screen / no.	31	32	33	34	35	36
MC4R antagonist	8	/	24	/	22	6
HDAC3 inh	41*	/	7	/	-3	3
NALP1 inh	27	/	-2	/	30	22
ALR inh	2	/	89*	/	3	97*
MC4R ag barr	0	/	0	/	1	0
Yeast UUG start	-14	-2	/	12	/	-3

(37) CCC(=O)Nc1ccc2c(c1)C(=O)N(C)[C@@H]1CC[C@@H](CC(=O)NCCc3ccncc3)O[C@@H]1CO2
(38) O=c1ccc2cc(O)c(O)cc2o1
(39) O=c1ccc2ccc(O)cc2o1
(40) NC(=O)CSc1cn(CCNC(=O)c2cccs2)c2ccccc12
(41) Cc1nnc(NC(=O)CSc2cn(CCNC(=O)c3ccccc3)c3ccccc23)s1
(42) CCOC(=O)CSc1nnc(NCC(=O)OC)c(=O)[nH]1
(43) COCC(=O)Nc1ccc2c(c1)C(=O)N(C)C[C@@H](OC)[C@H](C)CN(C(C)=O)[C@H](C)CO2
(44) Cc1ccc(S(=O)(=O)/N=C(\c2ccccc2)N(C)S(=O)(=O)c2ccc(C)cc2)cc1
(45) Cc1ccc(S(=O)(=O)N(C)/C(=N/S(=O)(=O)c2ccccc2)c2ccccc2)cc1
screen / no.	37	38	39	40	41	42	43	44	45
MC4R antagonist	/	5	11	2	23	9	/	-2	7
HDAC3 inh	/	-30	/	/	/	14	/	2	1
NALP1 inh	/	-2	/	-6	23	-8	/	22	25
ALR inh	/	96*	/	98*	72	100*	/	2	99*
MC4R ag barr	/	0	-1	1	1	-2	/	-1	0
Yeast UUG start	-10	-16	-9	-2	-16	-20	-10	11	-8

Complete entries from above. Values in the order: MC4R antagonist	HDAC3 inh	NALP1 inh	ALR inh	MC4R ag barr	Yeast UUG start
`Cc1ccccc1-n1c(=S)[nH]c2nc3c(cc2c1=O)CCCC3` is listed as 3	15	11	98*	-2	/
`Cc1ccc(NNC(=O)C(O)(c2cccc(C(F)(F)F)c2)c2cccc(C(F)(F)F)c2)cc1` is listed as 8	41*	27	2	0	-14
`Cc1ccc(-c2csc3nc(SCC(=O)N(C)C)n(Cc4ccccc4)c(=O)c23)cc1` is listed as 0	12	30	-6	3	-11
`COCC#Cc1cnc2c(c1)C(=O)N([C@@H](C)CO)C[C@@H](C)[C@@H](CN(C)C(=O)Nc1cccc(F)c1)O2` is listed as /	/	/	/	/	12
